This note sets out measurements from PMC5620571, “Pharmacokinetic Analysis of an Oral Multicomponent Joint Dietary Supplement (Phycox®) in Dogs” (Pharmaceutics, 2017).

The nature of the data set: Single-dose oral pharmacokinetic study of one Phycox soft chew in dogs (serum, LC-MS/MS, non-compartmental analysis). The data set is classed as in vivo, dog (female Beagle). The conditions noted are these: single PO Phycox soft chew (36.1 μg ±hesperetin, 0.554 μg trans-resveratrol, 2.88 μg ±naringenin), serum 0-24 h, LOQ 5 ng/mL. From the text: The animal research protocol used in this study was reviewed and approved by the Institutional Animal Care and Use Committee at Washington State University (protocol #04224-011, approved 21 December 2014). Four commercially available purpose-bred intact female research Beagles from an Association for Assessment and Accreditation of Laboratory Animal Care (AALAC) certified source were used for the study. All dogs were 2 years of age at the onset of the study with a weight of 9.25 ± 0.81 kg (mean ± SD; range 8.4–10.2 kg). Animals were housed in AALAC approved facilities for animal research for 80 days acclimating to their environment prior to the initiation of the study. […] Following centrifugation of the blood samples, serum was removed and stored at −80 °C until analyzed. […] PK samples were analyzed using Phoenix WinNonlin software (ver. 6.3; Certara, St. Louis, MO, USA) to derive the pharmacokinetic parameters for each individual dog and expressed as mean ± SEM. […] The AUC0–∞ was calculated using the long-linear trapezoidal rule for data from time of dosing to the last measured concentration plus the quotient of the last measured concentration divided by KE/2.303. […]

“Also recorded” adds a separate entry of the source.

As for ±naringenin, the “serum concentration of polyphenol (aglycone or glucuronidated metabolite)” value is “not detected at quantifiable concentrations; also recorded: no compounds were detected at quantifiable concentrations”.
